# According to patent EP4843990A1, “AMINO HETEROARYL MACROCYCLIC COMPOUNDS AS WELL AS PREPARATION METHOD THEREFOR AND USE THEREOF” (dated 2026):
# Sequences of proteins named here, by UniProt entry; tags and fusion partners are left off.
# UniProt P08183, whole entry: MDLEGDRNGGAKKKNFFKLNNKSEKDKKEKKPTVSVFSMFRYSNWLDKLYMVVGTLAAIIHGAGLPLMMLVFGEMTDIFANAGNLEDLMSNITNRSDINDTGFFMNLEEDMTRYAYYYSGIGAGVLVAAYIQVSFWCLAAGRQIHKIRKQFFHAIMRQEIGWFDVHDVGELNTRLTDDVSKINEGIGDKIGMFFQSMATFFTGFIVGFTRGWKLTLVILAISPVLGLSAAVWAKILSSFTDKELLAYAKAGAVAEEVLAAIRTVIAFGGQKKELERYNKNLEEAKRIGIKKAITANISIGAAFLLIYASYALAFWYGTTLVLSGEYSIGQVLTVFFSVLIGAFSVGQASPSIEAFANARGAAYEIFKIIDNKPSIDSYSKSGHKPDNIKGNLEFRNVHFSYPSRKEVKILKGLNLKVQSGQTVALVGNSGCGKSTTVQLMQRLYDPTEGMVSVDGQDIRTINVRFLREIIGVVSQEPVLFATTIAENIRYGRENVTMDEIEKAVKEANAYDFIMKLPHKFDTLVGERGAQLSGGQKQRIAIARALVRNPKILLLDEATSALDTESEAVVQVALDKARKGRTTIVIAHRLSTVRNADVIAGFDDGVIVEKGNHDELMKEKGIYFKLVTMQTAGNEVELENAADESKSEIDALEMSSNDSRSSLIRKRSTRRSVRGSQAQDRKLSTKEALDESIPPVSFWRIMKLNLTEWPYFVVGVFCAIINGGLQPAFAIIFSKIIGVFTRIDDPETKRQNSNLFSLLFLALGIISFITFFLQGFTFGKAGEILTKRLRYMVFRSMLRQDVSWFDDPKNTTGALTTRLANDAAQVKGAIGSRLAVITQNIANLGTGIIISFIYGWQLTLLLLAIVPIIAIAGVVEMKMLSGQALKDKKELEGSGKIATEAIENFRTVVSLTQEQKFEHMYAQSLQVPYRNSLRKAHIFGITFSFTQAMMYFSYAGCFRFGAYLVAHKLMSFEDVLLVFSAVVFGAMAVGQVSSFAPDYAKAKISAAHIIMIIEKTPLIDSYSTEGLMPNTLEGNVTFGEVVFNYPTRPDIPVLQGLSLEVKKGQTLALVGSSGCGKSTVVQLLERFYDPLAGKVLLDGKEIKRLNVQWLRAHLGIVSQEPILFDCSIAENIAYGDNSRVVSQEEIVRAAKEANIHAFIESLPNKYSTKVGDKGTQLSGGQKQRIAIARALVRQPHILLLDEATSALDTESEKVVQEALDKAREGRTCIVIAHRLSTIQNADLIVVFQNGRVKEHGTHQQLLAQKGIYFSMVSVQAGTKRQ
# Columns and labels:
# A431 = assay: CellTiter-Glo cell proliferation inhibition assay; conditions: read-out: Antiproliferative activity (IC50 (nM)) A431; A431 cells; 72 hours; CTG
# Ba/F3 (EGFR-L858R/C797S) = assay: CellTiter-Glo cell proliferation inhibition assay; conditions: read-out: Antiproliferative activity (IC50 (nM)) Ba/F3 EGFR LR/CS; Ba/F3 (EGFR-L858R/C797S) cells; 72 hours; CTG
# [1] = system: Ba/F3 (EGFR-L858R/T790M/C797S); assay: CellTiter-Glo cell proliferation inhibition assay; conditions: read-out: Antiproliferative activity (IC50 (nM)) Ba/F3 EGFR LR/TM/CS; Ba/F3 (EGFR-L858R/T790M/C797S) cells; 72 hours; CTG
# Ba/F3 EGFR wt+EGF = assay: CellTiter-Glo cell proliferation inhibition assay; conditions: read-out: Antiproliferative activity (IC50 (nM)) Ba/F3 EGFR wt+EGF; Ba/F3 EGFR wt cells with EGF stimulation; 72 hours; CTG
# NCI-H1975 = assay: CellTiter-Glo cell proliferation inhibition assay; conditions: read-out: Antiproliferative activity (IC50 (nM)) NCI-H1975; NCI-H1975 cells; 72 hours; CTG
# PC9 = assay: CellTiter-Glo cell proliferation inhibition assay; conditions: read-out: Antiproliferative activity (IC50 (nM)) PC9; PC9 cells; 72 hours; CTG
# [2] = Cassette pharmacokinetic study in mice; conditions: ICR mice, PO, cassette dosing
# P-gp = P-gp (Homo sapiens, UniProt P08183); assay: P-gp substrate evaluation assay (MDCKII-MDR1 Transwell permeability); conditions: MDCKII-MDR1 cells; Papp basolateral to apical / apical to basolateral; 2 hours; pH 7.4
Compound,IC50 (A431) [nM],IC50 (Ba/F3 (EGFR-L858R/C797S)) [nM],IC50 [1] [nM],IC50 (Ba/F3 EGFR wt+EGF) [nM],IC50 (NCI-H1975) [nM],IC50 (PC9) [nM],Area Under the Curve AUC0-24h ([2]; 15 mg/kg) [ng·h/mL],Half-life T1/2 ([2]; 15 mg/kg) [h],Maximum Concentration Cmax ([2]; 15 mg/kg) [ng/mL],ER (Efflux Ratio) (P-gp),Area Under the Curve AUC0-24h ([2]; 10 mg/kg) [ng·h/mL],Half-life T1/2 ([2]; 10 mg/kg) [h],Maximum Concentration Cmax ([2]; 10 mg/kg) [ng/mL],Area Under the Curve AUC0-24h ([2]; 20 mg/kg) [ng·h/mL],Half-life T1/2 ([2]; 20 mg/kg) [h],Maximum Concentration Cmax ([2]; 20 mg/kg) [ng/mL]
"CC1c2ccc(N3C[C@H](N(C)S(C)(=O)=O)[C@H]3C)c3cnc(cc23)Nc2ccnc(n2)-c2cnn(C)c2OCC1(F)F (single isomer, unassigned)",613,0.4,1.1,145,1.1,2,–,–,–,1,10972,6,964,–,–,–
"Cc1nn(C)c2c1-c1nccc(n1)Nc1cc3c(ccc(N4C[C@H](CS(C)(=O)=O)[C@H]4C)c3cn1)C(C)C(F)(F)CO2 (single isomer, unassigned)",695,0.8,1.4,196,3.1,1,–,–,–,0.9,–,–,–,35072,4.2,4540
"Cc1nn(C)c2c1-c1nccc(n1)Nc1cc3c(ccc(N4C[C@H](N(C)S(C)(=O)=O)[C@H]4C)c3cn1)C(C)C(F)(F)CO2 (single isomer, unassigned)",775,0.5,1.8,138,1.4,2.4,21410,5.1,1581,1.2,–,–,–,–,–,–

# Molecules with a lower IC50 (A431), results first:
IC50 (A431) [nM],IC50 (Ba/F3 (EGFR-L858R/C797S)) [nM],IC50 [1] [nM],IC50 (Ba/F3 EGFR wt+EGF) [nM],IC50 (NCI-H1975) [nM],IC50 (PC9) [nM],Area Under the Curve AUC0-24h ([2]; 15 mg/kg) [ng·h/mL],Half-life T1/2 ([2]; 15 mg/kg) [h],Maximum Concentration Cmax ([2]; 15 mg/kg) [ng/mL],ER (Efflux Ratio) (P-gp),Area Under the Curve AUC0-24h ([2]; 10 mg/kg) [ng·h/mL],Half-life T1/2 ([2]; 10 mg/kg) [h],Maximum Concentration Cmax ([2]; 10 mg/kg) [ng/mL],Area Under the Curve AUC0-24h ([2]; 20 mg/kg) [ng·h/mL],Half-life T1/2 ([2]; 20 mg/kg) [h],Maximum Concentration Cmax ([2]; 20 mg/kg) [ng/mL],Compound
363,0.14,0.6,104,0.5,0.4,–,–,–,0.4,10741,3.2,953,–,–,–,"Cc1nn(C)c2c1-c1nccc(n1)Nc1cc3c(ccc(N4C[C@H](N(C)S(C)(=O)=O)[C@H]4C)c3cn1)C(C)CCO2 (single isomer, unassigned)"
117,0.2,0.7,12,0.7,0.3,2154,1.0,672,1.5,–,–,–,–,–,–,"CC1CCOc2c(cnn2C)-c2nccc(n2)Nc2cc3c1ccc(N1C[C@H](N(C)S(C)(=O)=O)[C@H]1C)c3cn2 (single isomer, unassigned)"
